# Binding of CDR-mutated scFvs to a peptide of the spike HR2 region

The target is the same throughout: PDVDLGDISGINAS, from the HR2 region of SARS-CoV-2 spike.

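The starting antibody came from a phage panning campaign against this peptide. These sequences belong to a second round, designed from the earlier measurements on random variants of the parent. Several design methods are mixed in this list. The scFvs were displayed on barcoded MATa yeast, the peptide on MATalpha yeast. Mating (16 h, 30 °C) was followed by selection of diploids and sequencing of their barcodes. The ratio of observed to expected reads was calibrated, replicate by replicate, on BCL2-family standards whose Kd was known from biolayer interferometry. Mating was done six times.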

Ab-14 is the parent antibody, in scFv form: VH, then a (GGGGS)3 linker, then VL. The heavy chain is unchanged in all variants.
VH: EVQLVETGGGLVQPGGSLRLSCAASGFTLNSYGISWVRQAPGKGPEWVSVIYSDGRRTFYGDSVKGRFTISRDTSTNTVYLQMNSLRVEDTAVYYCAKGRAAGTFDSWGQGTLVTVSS
VL: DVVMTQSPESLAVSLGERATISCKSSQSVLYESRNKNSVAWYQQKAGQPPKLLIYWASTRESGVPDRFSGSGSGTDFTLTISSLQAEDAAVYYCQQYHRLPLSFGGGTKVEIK

Each variant is given by its three light chain CDRs, as the data file delimits them; those of the parent are KSSQSVLYESRNKNSVA, WASTRES, QQYHRLPLS.
This list holds designs with more than six substitutions.
Values are apparent Kd, the geometric mean of the replicates that gave a signal; lower means stronger binding.
"nd" marks a missing value. The strain was present, yet no cells mated with the target were sequenced in any replicate, which points to weak or no binding.
The authors' rule: three or more of the six replicates give a measured affinity, fewer mean a poor binder.
The parent sequence was in this pool as ten entries: three were never detected, three once, and four in most replicates, with averages from 2.2 nM to 240 nM.
A sequence measured in both rounds can read differently, since the two assays cover different ranges.
Empty control strains, which show no peptide, gave a signal in 4% of pairings with all light chain designs; the median was 430 nM and 95% of these signals were weaker than 38 nM. No background was subtracted.

* AIEEDNAGEQKNSSNIA | SVDQRED | QQYQRLPLM: 1.1 nM (6 of 6 replicates)
* KLYMSTGLESRNKDSIA | DNSTRGT | QQYHRLPLS: 2.1 µM (1 of 6 replicates)
* HMSMLTLGGLKNRNSVA | QMTTREN | QQYDHLPLS: 2.1 nM (6 of 6 replicates)
* IVSNLMLWGYHAKNSIA | EAEMRTN | QQYDRLPLF: 29 nM (6 of 6 replicates)
* KIHCRELMHQGQINNIA | EAAKLVE | QQYALLPLA: 2.3 nM (6 of 6 replicates)
* MLSISHQVESINKSNVA | EMVTRES | QQYDRLPLS: 210 nM (3 of 6 replicates)
* KLQQGELYMSRNKNSVA | DASQRES | QQYHRLPLS: 620 pM (6 of 6 replicates)
* KMENSNGYESRNKNSVA | QASTRMS | QQYHRLPLS: 1.2 nM (6 of 6 replicates)
* KLMTQFGHQMDHKNSIA | HVDMVAQ | QQYMHLPLI: nd (0 of 6 replicates)
* MLTIEGDETHEKAFSIA | NVTNKEY | QQYARLPLT: 67 nM (5 of 6 replicates)
* SITVLDNPGSQGHNNIA | SGSCRAE | QQYIRLPLI: 2.9 nM (6 of 6 replicates)
* KLSLFYRVETRNKNSVA | DNSTRES | QDYDRLPLS: 20 nM (6 of 6 replicates)
* ILSQSVLMGMHLKNSVA | QASTRFE | QQYHRLPLM: 4.6 nM (6 of 6 replicates)
* KVSPSQEYWSRNKQSVA | HASQREE | QQYHRLPLS: 2.1 nM (6 of 6 replicates)
* KLSQQMLYESRNHNNVA | AASQRED | QQYHRLPLS: 290 pM (6 of 6 replicates)
* KMEQGDLYESRNKGSVA | GASVRES | QQYHRLPLS: 260 pM (6 of 6 replicates)
* KITYQYRFEQLSKNNIA | EVVTRLK | QQYHRLPLS: nd (0 of 6 replicates)
* QIQFLDVQYGVKEQAVA | EENQRDQ | QHYFRLPLS: 33 nM (6 of 6 replicates)
* MIDMGEAPNGQQTSSIA | QGHLKAE | QQYYRLPLC: 2.5 nM (6 of 6 replicates)
* KFMYSVLYEERNQNSVA | SASQREQ | QQYHRLPLS: 3.3 nM (6 of 6 replicates)
* MVNGVLDHLSKNTNNVA | ETSTRES | QQYDRLPLQ: 5.7 nM (6 of 6 replicates)
* SIYDATGMESRNKNPIA | DVSTRPN | QQYDRLPLS: 1.3 nM (6 of 6 replicates)
* DLPMKELQMSENTNNVA | DSEQKMK | QQYSRLPLM: 260 pM (6 of 6 replicates)
* NMKVGLNFEDIQHQAIA | EVMERES | QQYARLPLT: 18 nM (5 of 6 replicates)
* KLSGLMASSKFAKDSVA | ENNTRED | QQYDRLPLS: 370 nM (3 of 6 replicates)
* HMSMITLGGMRARNSVA | QMTTREN | QQYDRLPLS: 5.3 nM (6 of 6 replicates)
* KLSMVTGHMSIEKNNVA | EMETREN | QQYNRLPLS: 2.7 nM (6 of 6 replicates)
* KVEQSVMMGSRNKNSVA | HASVREQ | QQYHRLPLS: 2.3 nM (6 of 6 replicates)
* HISQSFMQESVWRNNIA | HQSTREQ | QQYDRLPFS: 3.5 nM (6 of 6 replicates)
* MLSQMWGVGSKHSNSVA | QASMRFN | QQYDRLPLI: 7.9 nM (6 of 6 replicates)
* KLSGIMRQESKVSNSIA | EVNERPE | QQYDRLPLS: 29 nM (6 of 6 replicates)
* TLSDLMYMESRNANSVA | DLVKRES | QQYHRLPLS: 670 pM (6 of 6 replicates)
* KLAMITGLEKVSGNNVA | EMETREK | QQYNRLPLS: 2.3 nM (6 of 6 replicates)
* TLSDLMHMESRNVNNVA | DLVKRES | QQYHRLPLS: 2.4 nM (6 of 6 replicates)
* QTTAFYEHLKDQQQAMA | NATMRDQ | QQYERLPLS: nd (0 of 6 replicates)
* NFSQMVLTGSTLKNSVA | HAQTREE | QQYHRLPLI: 5.7 nM (6 of 6 replicates)
* KVSEFMRGLMQRKDSIA | DNTTRNN | QQYDRLPLS: 170 nM (5 of 6 replicates)
* KVQGWQLYESRNKNAVA | NASTRCD | QQYHRLPLS: 20 nM (6 of 6 replicates)
* KLVNFMNRGTHHTSNIA | DAQNRLD | QQYARLPLA: 1.3 nM (6 of 6 replicates)
* KISQSGPYEDRNFNSVA | HASYRIS | QQYHRLPLS: 7.5 nM (6 of 6 replicates)
* QLSMITGHVSMIKNNVA | EMETREN | QQYDRLPLS: 18 nM (6 of 6 replicates)
* MLEEYQSYGAANLNAVA | DANCTMF | QQYYRLPIS: 2.3 nM (6 of 6 replicates)
* KIAQSMAMTSHHINSVA | QSTTREE | QQYNHLPLS: 1.4 nM (6 of 6 replicates)
* KLPQATMLESVSKNSVA | ELSTRGS | QQYHRLPLS: 2.6 nM (6 of 6 replicates)
* KISMLINQTFQMANNVA | EMVTREK | QQYNRLPLS: 4.7 nM (6 of 6 replicates)
* KISQMVRVGATHNNSIA | EEVTRAK | QQYHRLPLS: 21 nM (6 of 6 replicates)
* TLDLWTSYGNGLNKAIA | DVSIKDY | QQYARLPLL: 36 nM (5 of 6 replicates)
* KIAMYIEMNAHQNHAMA | EASLKPS | QQYNRLPFS: 1.1 nM (6 of 6 replicates)
* SMAYFQHFGFQQEKAIA | EVATREQ | QQYFRLPLT: nd (0 of 6 replicates)
* TISQITSLFSQTINNVA | EVSTREA | QQYDRLPLM: 10 nM (6 of 6 replicates)
* KSSCSVDQEDRNSNSVA | NASTREW | QQYHRLPLS: 1.7 nM (6 of 6 replicates)
* KFSQMVNSMSVSHSAVA | EMSTRED | QQYNRLPLA: 1.9 nM (6 of 6 replicates)

Source: Li et al. 2023 (doi:10.1038/s41467-023-39022-2), MIT Lincoln Laboratory and A-Alpha Bio; data file from the FLAb repository.